The test relates to Adrenergic receptor alpha-2, Rattus norvegicus. Description: Ratio of binding affinity towards alpha-2 adrenergic receptor by displacement of [H]rauwolscine to that of displacement of [H]prazosin.

The structures appear in SMILES notation.

The source of these data is ChEMBL document CHEMBL1135045, “alpha(1)-Adrenoceptor antagonists. Rational design, synthesis and biological evaluation of new trazodone-like compounds” (Bioorg Med Chem Lett, 2002).

Turning to `O=c1ccc(-n2ccnc2)nn1CCCN1CCN(c2ccccc2Cl)CC1`, the Ratio is 9.

As for `COc1ccccc1N1CCN(CCCn2nc(-n3ccnc3)ccc2=O)CC1`, the Ratio was found to be 6.
